pIC50: −log10 of the molar value.
How the values were obtained:
Acetylcholinesterase = Acetylcholinesterase (Homo sapiens, UniProt P22303)
Cholinesterase = Cholinesterase (Homo sapiens, UniProt P06276)

Amino acid sequences for entries named in this document (tags omitted). A change or cut given only in a name is not applied to a line headed by its entry.
UniProt P22303: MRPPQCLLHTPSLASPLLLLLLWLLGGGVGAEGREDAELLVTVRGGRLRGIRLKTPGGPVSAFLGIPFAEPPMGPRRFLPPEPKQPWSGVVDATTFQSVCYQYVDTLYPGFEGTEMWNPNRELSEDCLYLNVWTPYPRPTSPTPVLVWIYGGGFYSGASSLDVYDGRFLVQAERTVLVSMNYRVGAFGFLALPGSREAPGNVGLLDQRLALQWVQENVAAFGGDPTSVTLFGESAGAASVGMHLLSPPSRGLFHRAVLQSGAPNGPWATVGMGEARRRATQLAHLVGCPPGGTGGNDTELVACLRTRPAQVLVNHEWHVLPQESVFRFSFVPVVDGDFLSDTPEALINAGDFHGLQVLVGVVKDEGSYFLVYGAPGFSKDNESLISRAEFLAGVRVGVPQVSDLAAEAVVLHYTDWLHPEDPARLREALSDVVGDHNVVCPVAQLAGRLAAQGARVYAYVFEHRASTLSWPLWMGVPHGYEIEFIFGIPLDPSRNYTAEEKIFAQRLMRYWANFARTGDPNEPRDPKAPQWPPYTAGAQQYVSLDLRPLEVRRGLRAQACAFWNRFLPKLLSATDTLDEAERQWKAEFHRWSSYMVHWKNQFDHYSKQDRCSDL
UniProt P06276, whole entry: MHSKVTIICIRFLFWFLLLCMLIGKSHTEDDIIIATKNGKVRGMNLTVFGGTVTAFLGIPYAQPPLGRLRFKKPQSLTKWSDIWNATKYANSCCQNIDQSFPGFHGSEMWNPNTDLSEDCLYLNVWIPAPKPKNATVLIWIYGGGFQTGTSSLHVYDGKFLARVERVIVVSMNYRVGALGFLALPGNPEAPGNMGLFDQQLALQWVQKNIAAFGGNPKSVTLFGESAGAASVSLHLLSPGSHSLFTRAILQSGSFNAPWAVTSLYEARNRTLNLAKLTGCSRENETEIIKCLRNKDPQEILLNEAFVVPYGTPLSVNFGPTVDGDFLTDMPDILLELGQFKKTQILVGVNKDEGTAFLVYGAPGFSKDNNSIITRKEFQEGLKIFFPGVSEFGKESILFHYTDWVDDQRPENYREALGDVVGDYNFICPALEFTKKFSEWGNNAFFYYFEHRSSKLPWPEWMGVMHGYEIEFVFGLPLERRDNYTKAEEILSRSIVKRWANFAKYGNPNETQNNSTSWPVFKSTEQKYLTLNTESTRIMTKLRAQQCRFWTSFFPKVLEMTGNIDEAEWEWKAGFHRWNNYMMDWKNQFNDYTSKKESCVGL

SMILES	pIC50 (Acetylcholinesterase)	pIC50 (Cholinesterase)
Cc1ccccc1NC(=O)Oc1ccc2c(c1)[C@@]1(C)CCO[C@H]1O2	7.44	–
CC(C)c1ccc(NC(=O)Oc2ccc3c(c2)[C@@]2(C)CCN(C)[C@H]2N3C)cc1	–	5.29
Cc1ccccc1NC(=O)Oc1ccc2c(c1)[C@]1(C)CCO[C@@H]1O2	7.70	–
C=CC[N+](C)(C)c1ccc(CCC(=O)CCc2ccc([N+](C)(C)CC=C)cc2)cc1	7.74	4.32

Reference: ChEMBL document CHEMBL1146079, “Inhibition of human acetyl- and butyrylcholinesterase by novel carbamates of (-)- and (+)-tetrahydrofurobenzofuran and methanobenzodioxepine” (J Med Chem, 2006)
